Measured values reported in ChEMBL document CHEMBL4196169 (J Med Chem, 2018).

Amino acid sequences for entries named in this document (tags omitted).
UniProt P00519, whole entry: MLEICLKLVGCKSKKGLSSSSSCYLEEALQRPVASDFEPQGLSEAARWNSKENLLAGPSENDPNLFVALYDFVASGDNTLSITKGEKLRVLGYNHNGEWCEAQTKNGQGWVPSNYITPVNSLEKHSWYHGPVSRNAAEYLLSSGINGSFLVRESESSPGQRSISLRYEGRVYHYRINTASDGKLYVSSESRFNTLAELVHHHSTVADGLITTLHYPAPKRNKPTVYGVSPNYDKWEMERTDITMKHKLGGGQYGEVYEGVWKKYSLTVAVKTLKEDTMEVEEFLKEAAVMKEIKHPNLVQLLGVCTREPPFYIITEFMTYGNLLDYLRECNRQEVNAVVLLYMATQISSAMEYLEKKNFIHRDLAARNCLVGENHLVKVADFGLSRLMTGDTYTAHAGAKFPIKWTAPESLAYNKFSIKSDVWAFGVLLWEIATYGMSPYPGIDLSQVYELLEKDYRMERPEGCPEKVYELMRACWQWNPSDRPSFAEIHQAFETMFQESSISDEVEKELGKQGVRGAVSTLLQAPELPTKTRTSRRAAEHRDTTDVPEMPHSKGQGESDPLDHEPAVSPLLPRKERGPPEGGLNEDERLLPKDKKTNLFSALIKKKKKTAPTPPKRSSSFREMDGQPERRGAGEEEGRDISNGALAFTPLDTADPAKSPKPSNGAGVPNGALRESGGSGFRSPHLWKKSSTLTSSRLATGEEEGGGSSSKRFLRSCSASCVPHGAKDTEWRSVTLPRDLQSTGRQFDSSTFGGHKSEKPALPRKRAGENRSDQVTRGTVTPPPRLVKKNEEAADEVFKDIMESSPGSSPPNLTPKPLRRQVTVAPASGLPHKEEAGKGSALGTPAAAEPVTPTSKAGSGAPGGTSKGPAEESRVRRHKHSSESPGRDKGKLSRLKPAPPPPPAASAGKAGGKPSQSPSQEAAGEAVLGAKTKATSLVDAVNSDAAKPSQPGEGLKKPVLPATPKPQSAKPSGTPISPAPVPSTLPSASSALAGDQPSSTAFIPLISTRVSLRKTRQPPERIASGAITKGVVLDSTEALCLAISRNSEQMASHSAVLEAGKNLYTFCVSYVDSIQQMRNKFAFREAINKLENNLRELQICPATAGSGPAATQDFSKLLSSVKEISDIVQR

Assays:
[1] = molecular target: T1, Tyrosine-protein kinase ABL1 (Homo sapiens, UniProt P00519); test: Inhibition of recombinant human c-ABL SH1 domain (46 to 515 residues) expressed in bacterial expression system using EAIYAAPFAKKK as substrate measured every 20 secs in presence of [gamma-32P]ATP
[2] = molecular target: T1, Tyrosine-protein kinase ABL1; test: Inhibition of recombinant human c-ABL SH3/SH2/SH1 domain (46 to 515 residues) expressed in bacterial expression system using EAIYAAPFAKKK as substrate measured every 20 secs in presence of [gamma-32P]ATP

O=C(NCCO)c1cccc(-c2cc(Nc3ccc(OC(F)(F)F)cc3)ncn2)c1
pIC50 [1]: < 5.00
pIC50 [2]: 7.77

pIC50: −log10 of the molar value.
